Assay [1] concerns the target PIK3CD (Human) (UniProt O00329). Put plainly: Inhibition of PIK3CD Kinase Activity (Scintillation Proximity Assay).
The target is the same in assay [2]. Put plainly: Inhibition of PIK3CD Kinase Activity.
Assay [3] shares this target. Nature of the assay: Inhibition of PIK3CD Kinase Activity (AlphaScreen Assay). On the technique in general: Bead proximity is the source of the signal in Alpha formats.

The chains behind the UniProt entries cited, without tags or fusion partners. Where a name states a change or a piece, a line headed by the entry shows the natural chain unless it says otherwise.
UniProt O00329: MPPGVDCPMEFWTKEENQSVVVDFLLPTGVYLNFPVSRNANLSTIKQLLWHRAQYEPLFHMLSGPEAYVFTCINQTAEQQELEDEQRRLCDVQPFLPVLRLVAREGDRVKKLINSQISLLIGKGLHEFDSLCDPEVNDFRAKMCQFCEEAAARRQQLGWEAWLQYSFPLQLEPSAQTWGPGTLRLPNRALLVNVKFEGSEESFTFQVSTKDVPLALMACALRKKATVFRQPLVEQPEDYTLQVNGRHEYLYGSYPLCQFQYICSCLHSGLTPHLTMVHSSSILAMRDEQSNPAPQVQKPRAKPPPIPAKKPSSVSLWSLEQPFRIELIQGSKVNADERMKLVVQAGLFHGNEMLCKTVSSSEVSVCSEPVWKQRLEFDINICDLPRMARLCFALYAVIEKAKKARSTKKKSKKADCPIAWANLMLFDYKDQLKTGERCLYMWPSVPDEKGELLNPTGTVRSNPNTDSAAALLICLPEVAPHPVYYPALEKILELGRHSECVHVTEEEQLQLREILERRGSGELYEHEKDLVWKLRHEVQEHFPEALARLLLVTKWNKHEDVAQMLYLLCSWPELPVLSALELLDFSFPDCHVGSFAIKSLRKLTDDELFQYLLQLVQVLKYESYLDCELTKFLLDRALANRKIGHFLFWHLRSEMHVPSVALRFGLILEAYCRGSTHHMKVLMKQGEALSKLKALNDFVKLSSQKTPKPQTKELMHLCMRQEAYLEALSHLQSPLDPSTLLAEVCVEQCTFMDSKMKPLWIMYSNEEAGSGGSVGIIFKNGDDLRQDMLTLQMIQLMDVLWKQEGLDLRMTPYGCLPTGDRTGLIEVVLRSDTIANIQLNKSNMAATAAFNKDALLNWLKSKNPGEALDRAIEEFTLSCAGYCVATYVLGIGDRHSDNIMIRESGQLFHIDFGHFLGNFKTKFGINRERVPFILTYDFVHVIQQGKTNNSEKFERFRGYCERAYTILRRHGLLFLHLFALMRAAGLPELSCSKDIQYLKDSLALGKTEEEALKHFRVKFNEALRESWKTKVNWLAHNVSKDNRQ

In the case of `Cc1csc2nc([C@H](C)Nc3ncnc4[nH]cnc34)c(-c3cccc(F)c3)c(=O)n12`, the half-inhibitory concentration (IC50) against PIK3CD (Human) [1] and at PIK3CD (Human) [2] was < 50 nM throughout.
Regarding `Cc1csc2nc(C(C)Nc3ncnc4[nH]cnc34)c(-c3cccc(F)c3)c(=O)n12` (stereo unspecified), the IC50 against PIK3CD (Human) [1], at PIK3CD (Human) [2] and at PIK3CD (Human) [3] was < 50 nM each time.
With `Cc1csc2nc([C@H](C)Nc3ccnc4[nH]cnc34)c(-c3cccc(F)c3)c(=O)n12`, on PIK3CD (Human) [1], the IC50 was < 50 nM.

As usually defined, the IC50 is the concentration that inhibits the measured activity by half. A high value points to a need for much substance.
